The source of these data is ChEMBL document CHEMBL5661974, “Pharmacologic characterization of a potent inhibitor of class I phosphatidylinositide 3-kinases” (Cancer Res, 2007).

Chains of the proteins cited; added tags and fusions are not shown. Lines headed by an entry give the natural chain unless they say otherwise; changes in a name come on top.
UniProt P42338: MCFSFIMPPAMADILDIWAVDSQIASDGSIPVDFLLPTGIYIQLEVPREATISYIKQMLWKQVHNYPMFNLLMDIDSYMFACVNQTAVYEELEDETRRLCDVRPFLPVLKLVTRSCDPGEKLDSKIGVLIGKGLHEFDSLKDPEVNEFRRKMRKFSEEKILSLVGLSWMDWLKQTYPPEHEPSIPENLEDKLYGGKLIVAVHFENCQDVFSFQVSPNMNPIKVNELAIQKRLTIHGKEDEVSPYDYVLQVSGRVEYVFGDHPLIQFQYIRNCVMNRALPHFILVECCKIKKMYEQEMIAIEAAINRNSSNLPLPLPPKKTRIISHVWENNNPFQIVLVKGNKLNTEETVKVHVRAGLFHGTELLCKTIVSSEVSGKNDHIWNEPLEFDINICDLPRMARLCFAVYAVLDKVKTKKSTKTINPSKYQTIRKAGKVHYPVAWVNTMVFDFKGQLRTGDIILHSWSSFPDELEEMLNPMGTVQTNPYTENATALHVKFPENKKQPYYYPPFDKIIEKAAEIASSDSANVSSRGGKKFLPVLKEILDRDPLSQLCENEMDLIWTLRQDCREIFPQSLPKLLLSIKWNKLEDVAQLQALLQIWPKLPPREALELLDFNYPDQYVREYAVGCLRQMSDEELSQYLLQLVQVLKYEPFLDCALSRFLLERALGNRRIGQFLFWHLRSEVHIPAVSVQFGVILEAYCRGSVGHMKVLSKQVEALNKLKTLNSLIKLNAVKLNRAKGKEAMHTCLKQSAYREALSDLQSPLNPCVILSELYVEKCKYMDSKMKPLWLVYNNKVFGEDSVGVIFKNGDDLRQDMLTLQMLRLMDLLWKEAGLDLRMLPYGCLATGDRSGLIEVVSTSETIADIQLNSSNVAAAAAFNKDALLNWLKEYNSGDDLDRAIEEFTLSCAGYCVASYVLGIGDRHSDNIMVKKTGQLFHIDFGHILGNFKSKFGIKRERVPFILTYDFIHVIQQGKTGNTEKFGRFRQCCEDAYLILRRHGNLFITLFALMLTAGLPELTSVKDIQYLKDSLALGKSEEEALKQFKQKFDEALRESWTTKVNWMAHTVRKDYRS

What is called IC50 is the concentration at which inhibition is half-maximal.

Data set [1] concerns the target T1, Phosphatidylinositol 4,5-bisphosphate 3-kinase catalytic subunit delta isoform (Homo sapiens, UniProt O00329).
T1 sequence (O00329 whole entry): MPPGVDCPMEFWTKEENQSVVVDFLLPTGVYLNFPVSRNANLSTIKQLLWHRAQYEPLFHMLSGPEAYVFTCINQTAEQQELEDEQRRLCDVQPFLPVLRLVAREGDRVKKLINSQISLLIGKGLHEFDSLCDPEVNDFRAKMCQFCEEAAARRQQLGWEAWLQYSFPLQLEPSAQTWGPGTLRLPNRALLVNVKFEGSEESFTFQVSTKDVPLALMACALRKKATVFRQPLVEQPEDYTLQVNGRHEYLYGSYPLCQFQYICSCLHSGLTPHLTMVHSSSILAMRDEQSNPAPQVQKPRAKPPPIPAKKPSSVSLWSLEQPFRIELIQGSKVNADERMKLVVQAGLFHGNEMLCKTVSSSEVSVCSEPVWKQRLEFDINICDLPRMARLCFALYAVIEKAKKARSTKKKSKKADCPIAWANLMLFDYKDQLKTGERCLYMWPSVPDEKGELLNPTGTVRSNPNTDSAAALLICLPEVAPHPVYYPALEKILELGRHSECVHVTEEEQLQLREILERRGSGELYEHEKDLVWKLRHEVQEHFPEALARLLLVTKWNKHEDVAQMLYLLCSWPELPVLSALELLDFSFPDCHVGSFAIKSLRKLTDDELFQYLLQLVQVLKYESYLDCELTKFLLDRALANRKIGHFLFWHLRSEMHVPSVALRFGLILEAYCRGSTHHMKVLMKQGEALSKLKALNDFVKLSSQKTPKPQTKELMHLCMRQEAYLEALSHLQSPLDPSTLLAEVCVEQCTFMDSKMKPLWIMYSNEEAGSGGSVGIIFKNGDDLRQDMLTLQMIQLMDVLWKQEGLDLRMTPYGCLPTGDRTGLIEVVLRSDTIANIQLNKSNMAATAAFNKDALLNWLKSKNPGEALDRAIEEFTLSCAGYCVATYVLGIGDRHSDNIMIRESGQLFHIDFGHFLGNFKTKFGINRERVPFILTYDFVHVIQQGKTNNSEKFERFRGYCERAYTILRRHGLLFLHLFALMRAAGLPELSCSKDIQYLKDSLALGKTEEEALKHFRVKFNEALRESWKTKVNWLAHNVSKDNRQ
Description: Inhibition of human recombinant PI3Kdelta in the presence of ATP by scintillation proximity radiometric assay. In short, it runs like this:
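Human recombinant enzyme; scintillation proximity radiometric format with 1 μmol/L ATP. IC50 from sigmoidal dose-response fit, mean of three experiments.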

Data set [2] has as its target Phosphatidylinositol 4,5-bisphosphate 3-kinase catalytic subunit beta isoform (Homo sapiens, UniProt P42338).
A short description of data set [3]: Clearance in BALB/C mouse liver at 2.5 mg/kg, iv by LC-MS/MS analysis. It is filed as ADME, organism-based. The settings on record: in vivo.
The nature of data set [4]: Clearance in BALB/C mouse kidney at 2.5 mg/kg, iv by LC-MS/MS analysis. The settings on record: in vivo. It is filed as ADME, organism-based.
A short description of data set [5]: Clearance in BALB/C mouse spleen at 2.5 mg/kg, iv by LC-MS/MS analysis. It is filed as ADME, organism-based. The settings on record: in vivo.

Take `O=c1cc(N2CCOCC2)oc2c(-c3ccccc3)cccc12` [LY-294002]: the IC50 in data set [1] was found to be 600 nM; in data set [2], 580 nM.

For `Oc1cccc(-c2nc(N3CCOCC3)c3oc4ncccc4c3n2)c1` [PI-103], in data set [3], the CLH worked out at 0.09 L/h. Besides, the values for the CL in data set [4] and in data set [5] were 0.26 L/h and 0.27 L/h, respectively.
